{
  "source": "patent US20050119337A1",
  "about": "“Methods of application of Schisandrin B in the preparation of anticancer medications” (priority 2003, published 2005)",
  "system": "human epidermoid carcinoma MDR cell line KBV200",
  "assay": "Reversal of drug resistance of KBV200, MTT assay, 72 h",
  "conditions": "IC50 in the absence / IC50 in the presence of Schisandrin B (10 μg/ml)",
  "data": [
    {"smiles": "COc1cccc2c1C(=O)c1c(O)c3c(c(O)c1C2=O)C[C@@](O)(C(=O)CO)C[C@@H]3O[C@H]1C[C@H](N)[C@H](O)[C@H](C)O1", "note": "[Doxorubicin, doxorubicin]", "values": [
      {"measurement": "RF (Schisandrin B)", "result": 4.74}
    ]}
  ]
}
